ChEMBL document CHEMBL5506007, “Structure-based discovery of potent CARM1 inhibitors for colorectal cancer therapy” (Eur J Med Chem, 2024)
Active and inactive are the calls of the source. The rule behind the calls is not given here.

Columns and labels:
HCT-116 = assay: Antitumor activity against human HCT-116 cells assessed as inhibition of tumor growth at 10 to 25 mg/kg/day, ip administered for 12 days; type: functional, organism-based; settings: dose 10-25 mg/kg/day, time 12.0 day
[1] = molecular target: T1, Histone-arginine methyltransferase CARM1 (Homo sapiens) (UniProt Q86X55); assay: Inhibition of CARM1 in human HCT-116 cells assessed as reduction in methylation of asymmetric dimethyl arginine incubated for 48 hrs by Western blot analysis; type: cell-based; settings: dose 0-10 µM
T1 sequence (whole entry): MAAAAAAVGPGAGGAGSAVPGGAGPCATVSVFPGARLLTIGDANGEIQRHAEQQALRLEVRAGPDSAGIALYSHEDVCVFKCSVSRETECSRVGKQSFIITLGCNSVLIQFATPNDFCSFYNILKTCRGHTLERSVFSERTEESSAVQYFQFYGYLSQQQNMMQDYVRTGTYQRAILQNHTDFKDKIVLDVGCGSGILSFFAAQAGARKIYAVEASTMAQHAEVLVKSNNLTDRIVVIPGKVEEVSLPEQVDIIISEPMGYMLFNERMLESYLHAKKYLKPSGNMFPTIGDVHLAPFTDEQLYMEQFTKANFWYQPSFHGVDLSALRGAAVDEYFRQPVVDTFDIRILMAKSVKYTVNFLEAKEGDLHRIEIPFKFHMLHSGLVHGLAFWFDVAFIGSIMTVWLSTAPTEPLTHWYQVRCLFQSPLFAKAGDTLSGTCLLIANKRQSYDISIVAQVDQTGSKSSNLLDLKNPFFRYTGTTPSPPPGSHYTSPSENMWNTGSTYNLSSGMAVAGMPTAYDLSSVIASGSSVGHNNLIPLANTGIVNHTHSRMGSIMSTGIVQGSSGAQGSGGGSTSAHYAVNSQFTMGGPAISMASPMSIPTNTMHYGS

[2] = Selectivity index, ratio of IC50 for PRMT3 (unknown origin) to IC50 for CARM1 (unknown origin)
[3] = Selectivity index, ratio of IC50 for PRMT6 (unknown origin) to IC50 for CARM1 (unknown origin)
[4] = Selectivity index, ratio of IC50 for PRMT8 (unknown origin) to IC50 for CARM1 (unknown origin)
[5] = molecular target: T1, Histone-arginine methyltransferase CARM1 (Homo sapiens); assay: Inhibition of CARM1 in human HCT-116 cells assessed as reduction in methylation of asymmetric dimethyl-PABP1 incubated for 48 hrs by Western blot analysis; type: cell-based; settings: dose 0-10 µM
[6] = Selectivity index, ratio of IC50 for PRMT1 (unknown origin) to IC50 for CARM1 (unknown origin)

CCOCC1(COCC)CCC(Oc2ccccc2CN(C)C[C@@H](O)CNC)CC1
Activity (HCT-116): Active | inhibition [1]: Dose-Dependent Effect | Ratio IC50 [2]: 300 | Ratio IC50 [3]: > 3 | Ratio IC50 [4]: > 3 | inhibition [5]: Dose-Dependent Effect | Ratio IC50 [6]: > 5
